# Target: Kappa-type opioid receptor (Cavia porcellus) (UniProt P41144)
# Sequences of proteins named here, by UniProt entry; tags and fusion partners are left off. A change or cut given only in a name is not applied to a line headed by its entry.
# UniProt P41144: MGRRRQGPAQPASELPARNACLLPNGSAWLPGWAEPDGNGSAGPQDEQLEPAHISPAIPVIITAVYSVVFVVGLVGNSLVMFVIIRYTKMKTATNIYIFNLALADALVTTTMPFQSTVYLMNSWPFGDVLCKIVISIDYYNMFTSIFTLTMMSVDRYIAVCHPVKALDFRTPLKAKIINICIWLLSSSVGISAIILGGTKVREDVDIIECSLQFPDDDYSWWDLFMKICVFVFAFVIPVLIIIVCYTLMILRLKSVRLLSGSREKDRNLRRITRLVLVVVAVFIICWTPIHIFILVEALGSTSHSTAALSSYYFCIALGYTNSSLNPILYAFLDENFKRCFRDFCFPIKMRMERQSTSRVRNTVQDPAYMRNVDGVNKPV
# Settings: Brain, Membrane, 1 uM
row,inhibition,Structure (SMILES)
1,0%,O=C1N[C@@H]2[C@@H](NCc3ccccc3)CCC[C@H]2N(Cc2ccccc2)C1=O (mixture of isomers)
2,2%,c1ccc(CN2CCN[C@H]3[C@H]2CCC[C@@H]3N2CCCC2)cc1 (mixture of isomers)
3,0%,N[C@H]1CCC[C@@H]2[C@@H]1NC(=O)C(=O)N2Cc1ccccc1 (racemic)
4,3%,O=C1N[C@H]2[C@@H](CCC[C@@H]2N2CCCC2)N(Cc2ccccc2)C1=O (relative stereo)

# Reference: ChEMBL document CHEMBL3297660, “Combination of cyclohexane and piperazine based κ-opioid receptor agonists: Synthesis and pharmacological evaluation of trans,trans-configured perhydroquinoxalines” (Bioorg Med Chem, 2014)
